Tested on: human liver microsomes (HLMs)
Test: Low-dose (LC-MS/MS) metabolism / intrinsic clearance in human liver microsomes
Conditions: for Decay Type (metabolism type): one column for both regimens, BPD = biphasic in MS and/or NMR; for % Remaining (data based on MS): percent of OP remaining after incubation, low-dose regimen

| Substance | Decay Type (metabolism type) | % Remaining (data based on MS) [%] |
| --- | --- | --- |
| Chlorpyrifos Oxon | OPD |  |
| Fenthion Oxon | OPD | 90.00 |
| Paraoxon-ethyl | OPD |  |
| Paraoxon-methyl |  | 68.00 |

Reference: PMC10144572, “Targeted Metabolomics of Organophosphate Pesticides and Chemical Warfare Nerve Agent Simulants Using High- and Low-Dose Exposure in Human Liver Microsomes” (2023)
